Apparent affinities of Ab-14 variants for a coronavirus HR2 peptide

The measurements come from Engelhart et al. 2022 (doi:10.1038/s41597-022-01779-4) through the FLAb antibody collection.

Binding partner: SARS-CoV-2 spike HR2 peptide, sequence PDVDLGDISGINAS.

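The starting antibody came from a phage panning campaign against this peptide. The library (AAYL49) carries one to three amino acid substitutions per variant, with no insertions or deletions. Affinity was read by AlphaSeq, a pooled yeast mating assay with surface-displayed partners. Pairs that bind mate more often; barcode pairs of the diploids are counted by sequencing. Each replicate has its own calibration line, from reference interactions of the BCL2 family. There are three technical replicates.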

The variants keep the light chain, the linker and the frameworks of Ab-14 (scFv order VH, the linker GGGGSGGGGSGGGGS, VL).
VH: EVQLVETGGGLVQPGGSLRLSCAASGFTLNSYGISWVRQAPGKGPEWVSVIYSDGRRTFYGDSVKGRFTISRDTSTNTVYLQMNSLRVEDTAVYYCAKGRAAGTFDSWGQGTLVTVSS
VL: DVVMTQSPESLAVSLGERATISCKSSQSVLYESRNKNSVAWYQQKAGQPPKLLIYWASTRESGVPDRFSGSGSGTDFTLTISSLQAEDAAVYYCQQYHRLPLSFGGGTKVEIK

The whole VH of each variant is written out. Numbers give log10(Kd / nM), so 0 is 1 nM and 3 is 1 µM. Smaller is tighter. "nd" means that the variant was in the library but no mating with the target was seen in that replicate; the authors take this as a sign of poor binding, and no number exists. Parent in this assay: reference entry 0.65, copy in this library 4.11 (one replicate of three). As a blank, each scFv also met three strains without target: over library AAYL49, 15% of these pairings were detected, typically at 4.06 and seldom below 2.83. Also given: how often the same scFv was detected with the empty control strains, with their mean in brackets.

| # | VH | replicates, log10 nM | empty controls |
|---|---|---|---|
| 1 | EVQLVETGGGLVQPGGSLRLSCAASGFTLNSYGISWVRQAPGKGPEWVSVIYSDGRRTFFGDSVKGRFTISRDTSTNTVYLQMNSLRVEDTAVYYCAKGRAAYTFDSWGQGTLVTVSS | 3.08 2.10 2.72 | 0 of 9 |
| 2 | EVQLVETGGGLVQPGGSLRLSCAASGFTWNSYGIGWVRQAPGKGPEWVSVIYSDGRRTFYGDSVKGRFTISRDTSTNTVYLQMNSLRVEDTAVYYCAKGFAAGTFDSWGQGTLVTVSS | 3.93 nd nd | 0 of 9 |
| 3 | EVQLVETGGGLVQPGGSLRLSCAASGFCLNSYGISWVRQAPGKGPEWVSEIYSDGRRTVYGDSVKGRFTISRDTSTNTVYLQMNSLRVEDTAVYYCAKGRAAGTFDSWGQGTLVTVSS | nd nd nd | 2 of 9 (3.87) |
| 4 | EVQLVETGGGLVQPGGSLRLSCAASGFTLNSYGISWVRQAPGKGPEWVSVIYFDGYRTFYGDSVKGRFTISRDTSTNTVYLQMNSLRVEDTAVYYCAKGRAAGTFDSWGQGTLVTVSS | nd 3.49 nd | 0 of 9 |
| 5 | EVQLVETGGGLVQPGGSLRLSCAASIFTLNSYGISWVRQAPGKGPEWVSVIYSDGRRTFYGDDVKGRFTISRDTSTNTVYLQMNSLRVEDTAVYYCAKGRARGTFDSWGQGTLVTVSS | nd 4.76 nd | 2 of 9 (3.85) |
| 6 | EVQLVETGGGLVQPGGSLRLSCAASGFTLNSYGISWVRQAPGKGPEWVSVIYSDGRRTFYGDVVKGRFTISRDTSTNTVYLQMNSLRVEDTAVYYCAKGRVAGTVDSWGQGTLVTVSS | nd nd 4.19 | 1 of 9 (3.49) |
| 7 | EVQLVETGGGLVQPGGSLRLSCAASGFTLNSYGISWVRQAPGKGPEWVSVIQSDGRRTFYGDSVKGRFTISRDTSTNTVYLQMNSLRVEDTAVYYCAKGRAGGTFDSWGQGTLVTVSS | nd nd nd | 1 of 9 (3.60) |
| 8 | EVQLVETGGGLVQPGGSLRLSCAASGLTLNSYGIKWVRQAPGKGPEWVSVIYSDGRRTGYGDSVKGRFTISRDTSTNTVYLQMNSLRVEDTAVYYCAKGRAAGTFDSWGQGTLVTVSS | nd nd 3.51 | 2 of 9 (2.97) |
| 9 | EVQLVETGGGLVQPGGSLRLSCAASGFTLNSYGASWVRQAPGKGPEWVSVIYSDGRRTFYGDSVKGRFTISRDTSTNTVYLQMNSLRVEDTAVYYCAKGRAIGTFDSWGQGTLVTVSS | nd nd nd | 2 of 9 (4.34) |
| 10 | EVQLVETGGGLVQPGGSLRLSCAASGFTLNSYMISWVRQAPGKGPEWVSVIYSDGRRTLYGDSGKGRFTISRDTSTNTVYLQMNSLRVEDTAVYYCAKGRAAGTFDSWGQGTLVTVSS | 6.07 4.39 6.34 | 5 of 9 (4.71) |
| 11 | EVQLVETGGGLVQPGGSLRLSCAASGFTLNSYGISWVRQAPGKGPEWVSVIYSDGRRTFYGDSVKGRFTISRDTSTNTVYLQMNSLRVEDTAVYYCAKNRAAGTFKSWGQGTLVTVSS | 1.29 1.43 1.57 | 1 of 9 (4.24) |
| 12 | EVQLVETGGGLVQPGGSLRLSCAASGFTWNSYGISWVRQAPGKGPEWVSVIYSDGRRTFYNDSVKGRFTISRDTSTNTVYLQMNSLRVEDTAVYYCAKGRAAGTVDSWGQGTLVTVSS | nd 3.87 nd | 0 of 9 |
| 13 | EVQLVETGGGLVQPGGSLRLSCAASGFTLNSYLISWVRQAPGKGPEWVSVCYSDGRRTFYGDSCKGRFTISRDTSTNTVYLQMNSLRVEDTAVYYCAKGRAAGTFDSWGQGTLVTVSS | nd nd nd | 0 of 9 |
| 14 | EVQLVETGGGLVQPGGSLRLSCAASGFTLNSYGISWVRQAPGKGPEWVSTMYSDGRRTFYGDSVKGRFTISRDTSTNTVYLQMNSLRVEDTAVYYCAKGRAAGCFDSWGQGTLVTVSS | nd nd nd | 1 of 9 (2.87) |

The last 2 entries again:

{"VH": "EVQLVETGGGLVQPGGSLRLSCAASGFTLNSYLISWVRQAPGKGPEWVSVCYSDGRRTFYGDSCKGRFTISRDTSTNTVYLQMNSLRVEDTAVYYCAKGRAAGTFDSWGQGTLVTVSS", "replicates, log10 nM": "nd nd nd", "empty controls": "0 of 9"}
{"VH": "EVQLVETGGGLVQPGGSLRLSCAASGFTLNSYGISWVRQAPGKGPEWVSTMYSDGRRTFYGDSVKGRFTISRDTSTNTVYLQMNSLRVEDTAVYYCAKGRAAGCFDSWGQGTLVTVSS", "replicates, log10 nM": "nd nd nd", "empty controls": "1 of 9 (2.87)"}